Measurements taken from PubChem BioAssay AID588354 (The Scripps Research Institute Molecular Screening Center, 2011).
Only a part is listed here, and it is no random draw. Active and inactive are the calls of the source.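 Rule for the calls: active = inhibition above the campaign mean plus 3 SD, with each screening campaign given its own cutoff (cut at about 60% in these data); inactive = the rest.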

Sequences of proteins named here, by UniProt entry; tags and fusion partners are left off. A change or cut given only in a name is not applied to a line headed by its entry.
UniProt Q15788: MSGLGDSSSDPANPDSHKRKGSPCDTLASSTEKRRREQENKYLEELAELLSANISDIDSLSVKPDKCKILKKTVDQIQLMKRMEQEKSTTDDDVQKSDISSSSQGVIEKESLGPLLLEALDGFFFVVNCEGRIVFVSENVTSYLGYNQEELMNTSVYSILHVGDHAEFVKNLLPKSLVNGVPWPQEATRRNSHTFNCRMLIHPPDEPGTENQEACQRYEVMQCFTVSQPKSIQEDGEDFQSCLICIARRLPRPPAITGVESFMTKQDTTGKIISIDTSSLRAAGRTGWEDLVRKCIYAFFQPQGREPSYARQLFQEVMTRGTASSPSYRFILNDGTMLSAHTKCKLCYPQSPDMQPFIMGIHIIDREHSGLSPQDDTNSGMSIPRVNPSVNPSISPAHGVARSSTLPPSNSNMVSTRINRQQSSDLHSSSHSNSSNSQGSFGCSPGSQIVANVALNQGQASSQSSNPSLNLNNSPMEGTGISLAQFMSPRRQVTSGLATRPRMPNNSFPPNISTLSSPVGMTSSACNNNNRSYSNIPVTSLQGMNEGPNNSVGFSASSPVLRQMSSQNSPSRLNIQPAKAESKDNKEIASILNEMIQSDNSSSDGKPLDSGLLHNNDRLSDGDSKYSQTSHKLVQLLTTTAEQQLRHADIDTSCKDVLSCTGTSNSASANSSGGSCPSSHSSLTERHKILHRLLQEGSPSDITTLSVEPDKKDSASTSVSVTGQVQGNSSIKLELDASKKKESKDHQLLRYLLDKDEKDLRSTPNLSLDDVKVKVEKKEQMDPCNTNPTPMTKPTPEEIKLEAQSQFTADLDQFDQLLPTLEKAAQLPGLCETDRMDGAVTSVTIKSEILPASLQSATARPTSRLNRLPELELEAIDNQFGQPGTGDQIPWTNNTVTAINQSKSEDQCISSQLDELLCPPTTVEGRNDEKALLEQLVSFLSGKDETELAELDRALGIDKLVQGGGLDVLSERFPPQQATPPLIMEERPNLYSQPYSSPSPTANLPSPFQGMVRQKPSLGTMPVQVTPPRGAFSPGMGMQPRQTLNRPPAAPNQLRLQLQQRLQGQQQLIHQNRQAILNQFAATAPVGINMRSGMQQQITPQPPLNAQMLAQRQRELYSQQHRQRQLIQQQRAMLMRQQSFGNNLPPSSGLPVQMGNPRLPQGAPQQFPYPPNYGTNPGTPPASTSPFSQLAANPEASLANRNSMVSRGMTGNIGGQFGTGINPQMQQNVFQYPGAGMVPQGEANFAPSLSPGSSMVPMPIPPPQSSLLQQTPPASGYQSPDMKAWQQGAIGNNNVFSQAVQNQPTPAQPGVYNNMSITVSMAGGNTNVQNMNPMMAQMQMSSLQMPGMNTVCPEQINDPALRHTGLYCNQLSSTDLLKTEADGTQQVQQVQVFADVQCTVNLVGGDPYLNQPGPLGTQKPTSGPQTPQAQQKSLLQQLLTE

The compounds below were run against Nuclear receptor coactivator 1 (Homo sapiens) (UniProt Q15788) (assay: SRC1 coactivator transcriptional activity inhibitors, primary screen, cell-based, luminescence (AID 588354;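 note: 0% = DMSO treated cells and 100% = gossypol at 36 µM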)). Details: HEK293 GAL4-SRC1 luciferase reporter, at 3.6 µM, active compounds read high.
For `O=P(Nc1nccs1)(c1ccccc1)c1nc2ccccc2s1` (stereo not given), the inhibition was inactive: -22.2%. With `O=P(Nc1nccs1)(Oc1ccccc1)Oc1ccccc1` the inhibition was inactive: -11.5%. With `CCOP1(=S)c2c(C)nn(CCC#N)c2N=C(c2ccccc2F)N1C` (stereo not given) the inhibition was inactive: 16.3%. For `O=P1(Nc2ccc(Br)cn2)COc2ccccc2OC1`, the inhibition was inactive: -0.75%. `NS(=O)(=O)c1cccc(NC(=O)COC(=O)C(O)(c2ccccc2)c2ccccc2)c1` was tested, and the inhibition was inactive: -8.38%. For `O=[As](O)(c1cccs1)c1cccs1`, the inhibition was inactive: 3.33%. In the case of `Cc1ccc(OCC(=O)OC2CN3CCC2CC3)cc1` (stereo not given), the inhibition is reported as inactive: -20.2%. `Nc1cccc([As](=O)(O)c2ccccc2)c1` was tested, and the inhibition was inactive: 1.78%. With `O=P1(Nc2ncccn2)COc2ccccc2OC1` the inhibition was inactive: 8.76%. For `Cc1ccc(S(=O)(=O)N(CCCN)CCCc2c(C)nc(N)[nH]c2=O)cc1`, the inhibition was inactive: -5.89%. With `CCCC1OP(=O)(Nc2ccccc2)OCC1CC` (stereo not given) the inhibition was inactive: 3.97%. In the case of `O=C(/C=C/c1ccccc1)OC1CN2CCC1CC2` (stereo not given), the inhibition is reported as inactive: 5.8%. `CN(C)C1(CNC(=O)c2ccc(S(C)(=O)=O)cc2)CCCCC1` was tested, and the inhibition was inactive: 4.36%. For `CC1CCC(C(C)C)C(OP(=O)(Nc2ccccn2)c2ccccc2)C1` (stereo not given), the inhibition was inactive: 24.2%. `Cc1ccc(C(=O)OC2CN3CCC2CC3)cc1` (stereo not given) was tested, and the inhibition was inactive: -9.39%. For `Cc1nn(-c2ccccc2)c2c1P(=O)(N1CCOCC1)N(C)C(c1ccccc1)=N2` (stereo not given), the inhibition was inactive: 11.9%. In the case of `CC1(CBr)Cn2c(nc3ccccc3c2=O)S1` (stereo not given), the inhibition is reported as inactive: -15.5%. With `CC(C)/C=N\N=C(\N)N[N+](=O)[O-]` the inhibition was inactive: -1.61%. In the case of `CN(C(=O)Cc1ccc(Cl)c(Cl)c1)[C@@H]1CCCC[C@H]1N1CCCC1`, the inhibition is reported as inactive: -7.31%. With `COc1ccccc1CNC(=O)COC(=O)C(O)(c1ccccc1)c1ccccc1` the inhibition was inactive: -5.84%. With `CC(C)(C)C(=O)NC(Sc1ncccn1)C(Cl)(Cl)Cl` (stereo not given) the inhibition was inactive: -1.39%. `O=P1(N(CCCl)CCCl)NCCC(C(F)(F)F)O1` (stereo not given) was tested, and the inhibition was inactive: -5.14%. With `Clc1n[nH]nc1-c1nn[nH][15n]1` the inhibition was inactive: -5.89%. `CN(CCCl)Cc1cc(Cl)c(NC2=NCCN2)c(Cl)c1` was tested, and the inhibition was inactive: -0.95%. `CCOP(=O)(Nc1ccc(C)cn1)OCC` was tested, and the inhibition was inactive: 12%. `CCOP(=O)(NC(=NC(C)c1ccccc1)NC(C)c1ccccc1)OCC` (stereo not given) was tested, and the inhibition was inactive: 3.39%. In the case of `O=P1(Nc2ccccn2)COc2ccccc2OC1`, the inhibition is reported as inactive: -10.2%. With `CCC1=CC2Cc3nc4ccc(Cl)cc4c(N)c3C(C1)C2` (stereo not given) the inhibition was inactive: -1.6%. In the case of `c1nnnn1CCn1cnnn1`, the inhibition is reported as inactive: -3.98%. `CC(C)C(=O)NC(Sc1ccccc1)C(Cl)(Cl)Cl` (stereo not given) was tested, and the inhibition was inactive: -2.32%. With `O=P(Nc1nccs1)(c1ccccc1)c1ccccc1` the inhibition was inactive: 9.04%. For `Nc1ccc([As](=O)(O)c2ccc([N+](=O)[O-])cc2)cc1`, the inhibition was inactive: -10.4%. For `C(Cc1nn[nH]n1)Cc1nn[nH]n1`, the inhibition was inactive: -29.1%. With `O=C(OC1CN2CCC1CC2)c1cccc(Cl)c1` (stereo not given) the inhibition was inactive: 2.61%. In the case of `O=[N+]([O-])c1ccc(O)c(/C=N/Nc2ccc([N+](=O)[O-])cc2[N+](=O)[O-])c1`, the inhibition is reported as inactive: -12.7%. In the case of `O=[N+]([O-])c1ncn(CCn2cnc([N+](=O)[O-])n2)n1`, the inhibition is reported as inactive: -24.2%. `CC(=O)NC(SC(=S)N(C)C)C(Cl)(Cl)Cl` (stereo not given) was tested, and the inhibition was inactive: -10.5%. For `O=[As](O)(c1ccccc1)c1ccc(O)cc1`, the inhibition was inactive: -3.04%. For `C[C@H]1OP(=O)(Oc2ccccc2)[C@H](O)[C@H](O)[C@H]1N=[N+]=[N-]` (stereo not given in full), the inhibition was inactive: -2.07%. In the case of `O=P(Nc1nc2ccccc2s1)(c1ccccc1)c1ccccc1`, the inhibition is reported as inactive: -8.2%. `Nc1ccc(CCCCOc2ccccc2)cc1` was tested, and the inhibition was inactive: -35.2%. In the case of `COc1ccc(N)c([N+](=O)[O-])c1[N+](=O)[O-]`, the inhibition is reported as inactive: -6.08%. With `O=P(Nc1ccccn1)(c1ccc(Br)cc1)c1ccc(Br)cc1` the inhibition was inactive: -12.2%. For `CN(C)C1(CNC(=O)c2ccc(Cl)c(S(N)(=O)=O)c2)CCCCC1`, the inhibition was inactive: 2.6%. In the case of `CN(C)C(=O)Oc1noc2ccccc12`, the inhibition is reported as inactive: 8.44%. In the case of `O=c1c2cc([N+](=O)[O-])ccc2[nH]c2c([N+](=O)[O-])cc([N+](=O)[O-])cc12`, the inhibition is reported as inactive: -27.8%. `Cc1ccccc1OP(=O)(Nc1ccccn1)Oc1ccccc1C` was tested, and the inhibition was inactive: 14%. In the case of `CC(NC(=O)COC(=O)C(O)(c1ccccc1)c1ccccc1)c1ccccc1` (stereo not given), the inhibition is reported as inactive: -5.67%. `Cc1ccc(OP(=O)(Nc2ccccn2)Oc2ccc(C)cc2)cc1` was tested, and the inhibition was inactive: -28.9%. In the case of `CC(=O)NC(SC(=S)N(CC(C)C)CC(C)C)C(Cl)(Cl)Cl` (stereo not given), the inhibition is reported as inactive: 13%. In the case of `COC(=O)c1cc2c(s1)N=C(c1ccccc1)N(C)P2(=O)N1CCOCC1` (stereo not given), the inhibition is reported as inactive: -15.4%. In the case of `CCC(=O)N1C2C3N(C(=O)CC)C1C1N(C(=O)CC)C(C(N1C(=O)CC)N3C(=O)CC)N2C(=O)CC`, the inhibition is reported as inactive: -1.04%. With `O=C(OC1CN2CCC1CC2)c1ccccc1` (stereo not given) the inhibition was inactive: 5.48%. With `O=P1(N(CCCl)CCCl)OCCC2CCCCN21` (stereo not given) the inhibition was inactive: 5.02%. `CCNC(=S)/N=C(\N)N[N+](=O)[O-]` was tested, and the inhibition was inactive: -2.71%. In the case of `O=C(NC1CCS(=O)(=O)C1)NP(=S)(Oc1ccccc1)Oc1ccccc1` (stereo not given), the inhibition is reported as inactive: -13.9%. `Cc1ccc(NP(=O)(Oc2cccc(C)c2)Oc2cccc(C)c2)nc1` was tested, and the inhibition was inactive: 12%. With `c1ccc(-c2nn[nH]n2)c(-c2nn[nH]n2)c1` the inhibition was inactive: 3.06%. For `CC(=O)Nc1ccc(Oc2c([N+](=O)[O-])cc([N+](=O)[O-])cc2[N+](=O)[O-])cc1`, the inhibition was inactive: 2.73%. For `CC(=O)Nc1ccc([As](=O)(O)O)c(O)c1`, the inhibition was inactive: 5.68%. For `COC(=O)C1(C)COP(=O)(NCc2ccccc2)OC1` (stereo not given), the inhibition was inactive: -37.5%. For `N#C/C(=C\c1ccc(N(CCBr)CCBr)cc1)C(N)=O`, the inhibition was inactive: -15.5%. `CC(=O)c1ccc(N2CC2c2ccncc2)cc1` (stereo not given) was tested, and the inhibition was inactive: -33.2%. In the case of `C[C@@H]1C=CCP(=O)(Oc2ccccc2)O1` (stereo not given in full), the inhibition is reported as inactive: -16.4%. In the case of `C[C@H]1OP(=O)(Oc2ccccc2)C[C@@H]2O[C@@H]21` (stereo not given in full), the inhibition is reported as inactive: 0.36%.
